Results reported in ChEMBL document CHEMBL4411321, “Discovery of Potent, Selective, and Orally Bioavailable Estrogen-Related Receptor-γ Inverse Agonists To Restore the Sodium Iodide Symporter Function in Anaplastic Thyroid Cancer” (J Med Chem, 2019).

Amino acid sequences for entries named in this document (tags omitted). A change or cut given only in a name is not applied to a line headed by its entry.
UniProt Q12809: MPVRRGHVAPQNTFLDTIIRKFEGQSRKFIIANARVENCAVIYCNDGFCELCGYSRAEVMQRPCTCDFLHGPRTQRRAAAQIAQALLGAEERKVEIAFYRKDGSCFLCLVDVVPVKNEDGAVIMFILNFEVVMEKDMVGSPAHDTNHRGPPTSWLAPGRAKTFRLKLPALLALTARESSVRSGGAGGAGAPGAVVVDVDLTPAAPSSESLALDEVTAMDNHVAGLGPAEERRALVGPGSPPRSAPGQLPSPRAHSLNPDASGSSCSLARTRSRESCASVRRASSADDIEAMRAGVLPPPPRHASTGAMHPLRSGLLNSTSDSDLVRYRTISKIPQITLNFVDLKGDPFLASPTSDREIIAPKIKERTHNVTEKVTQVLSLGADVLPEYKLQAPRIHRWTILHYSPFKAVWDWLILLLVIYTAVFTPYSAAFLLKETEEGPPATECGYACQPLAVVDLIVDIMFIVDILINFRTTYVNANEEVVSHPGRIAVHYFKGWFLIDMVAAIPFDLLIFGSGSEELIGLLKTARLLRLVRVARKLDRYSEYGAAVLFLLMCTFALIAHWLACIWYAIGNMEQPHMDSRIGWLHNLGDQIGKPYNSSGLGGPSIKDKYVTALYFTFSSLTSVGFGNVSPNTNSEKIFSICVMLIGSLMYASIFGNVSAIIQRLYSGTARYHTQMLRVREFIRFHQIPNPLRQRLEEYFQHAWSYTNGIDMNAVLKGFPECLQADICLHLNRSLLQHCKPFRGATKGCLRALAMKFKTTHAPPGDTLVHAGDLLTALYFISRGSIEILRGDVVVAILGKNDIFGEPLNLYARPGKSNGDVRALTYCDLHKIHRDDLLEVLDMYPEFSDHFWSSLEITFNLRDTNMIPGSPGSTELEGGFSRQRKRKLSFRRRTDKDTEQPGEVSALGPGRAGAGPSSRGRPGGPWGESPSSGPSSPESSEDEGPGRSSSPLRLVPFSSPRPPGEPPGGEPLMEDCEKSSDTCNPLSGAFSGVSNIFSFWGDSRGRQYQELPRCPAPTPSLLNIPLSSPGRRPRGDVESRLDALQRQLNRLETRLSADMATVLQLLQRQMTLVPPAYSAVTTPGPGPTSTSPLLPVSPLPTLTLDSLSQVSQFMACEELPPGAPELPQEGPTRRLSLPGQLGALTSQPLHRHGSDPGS

Target: Voltage-gated inwardly rectifying potassium channel KCNH2 (Homo sapiens, UniProt Q12809)

`CN(C)CCOc1ccc(/C(=C(/CCCO)c2ccccc2)c2ccc(O)cc2)cc1.Cl` was tested. Which IC50 did it give?
Its IC50 is > 30 µM.
